Experimental data reported in ChEMBL document CHEMBL4138316, “Optimization of Isothiazolo[4,3- b]pyridine-Based Inhibitors of Cyclin G Associated Kinase (GAK) with Broad-Spectrum Antiviral Activity” (J Med Chem, 2018).
Values after ≈ are worked out from the molar mass of the structure shown.

What was measured:
[1] = Apparent permeability cross apical to basolateral side in MDCK-MDR1 cells at 5 uM after 90 mins by LC-MS/MS analysis; format: ADME, cell-based, Canis lupus familiaris; conditions: dog, mdck-mdr1, 1.5 h
[2] = Apparent permeability cross basolateral to apical side in MDCK-MDR1 cells at 5 uM after 90 mins by LC-MS/MS analysis; format: ADME, cell-based, Canis lupus familiaris; conditions: dog, mdck-mdr1, 1.5 h
[3] = Aqueous solubility in PBS buffer at pH 7.4 at 100 uM after 1 hr by LC-MS/MS analysis; format: physicochemical; conditions: pH 7.4, 1 h

SMILES	Papp [1]	Papp [2]	solubility [3]
C=C[C@H]1C[N@@]2CC[C@H]1C[C@@H]2[C@@H](O)c1ccnc2ccc(OC)cc12 [QUINIDINE]	13.03 ×10⁻⁶ cm/s	41.99 ×10⁻⁶ cm/s	–
CC(=O)N1CCN(c2ccc(OCC3COC(Cn4ccnc4)(c4ccc(Cl)cc4Cl)O3)cc2)CC1 (stereo not drawn) [KETOCONAZOLE]	–	–	32 µM (≈ 17 µg/mL)
